## scFv variants of Ab-14 (heavy chain) against a SARS-CoV-2 spike peptide

The target is the same throughout: PDVDLGDISGINAS, from the HR2 region of SARS-CoV-2 spike.

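The parent was found by panning a naive human phage display library on the peptide. These sequences belong to a second round, designed from the earlier measurements on random variants of the parent. Their group label is 14H_En_Gen (En: ensemble of fine-tuned language models; Gen: genetic algorithm). Affinity was read by AlphaSeq, a pooled yeast mating assay with surface-displayed partners. Binding brings cells together so that they mate, and sequencing counts the barcode pairs among the diploids. A regression on co-assayed BCL2-family reference pairs converts the normalised counts of each replicate to an apparent Kd. Each pool was mated in six replicate cultures.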

Parent: Ab-14, a human scFv built as VH, a (GGGGS)3 linker, VL. Only the CDRs of the heavy chain vary.
VH: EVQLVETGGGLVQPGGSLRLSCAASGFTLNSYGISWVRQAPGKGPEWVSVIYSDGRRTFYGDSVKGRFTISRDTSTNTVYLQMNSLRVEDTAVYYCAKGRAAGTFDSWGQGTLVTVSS
VL: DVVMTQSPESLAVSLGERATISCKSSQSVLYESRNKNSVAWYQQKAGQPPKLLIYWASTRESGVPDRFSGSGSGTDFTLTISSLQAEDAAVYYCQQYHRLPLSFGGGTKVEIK

The parent's heavy chain CDRs are GFTLNSYGIS, VIYSDGRRTFYGDSVK, GRAAGTFDS; each variant's own CDRs replace them letter for letter.
Affinities are written as log10 Kd with Kd in nM; a lower number is a better binder.
"nd" means that the variant was in the library but no mating with the target was seen in that replicate; the authors take this as a sign of poor binding, and no number exists.
The authors averaged sequences with at least three values out of six and counted those with two or fewer as poor binders.
Values of this round are not directly comparable with the first-round values of the same sequences.
Background: pairings of all heavy chain designs with three empty control strains gave a value in 1% of cases (median 2.08, 5th percentile 0.84). Values in that range, when seen in few replicates, are hard to tell from nonspecific mating. Also given: how often the same scFv was detected with the empty control strains, with their mean in brackets.
The parent sequence was in this pool as ten entries: three were never detected, three once, and four in most replicates, with averages from 0.34 to 2.37.

CDR-H1	CDR-H2	CDR-H3	replicates, log10 nM	control signals
GFDLNEYGIS	VIYADGQRTAYADSVK	GNVAGTFDV	-0.01 -0.30 -0.90 -0.38 -0.17 -0.53	0 of 18
GFDLDEYGIS	VIYADGVRKAYADSVK	GNQAGTFDV	-0.01 -0.13 -0.28 -0.71 0.06 -0.42	0 of 18
GFDLNEYGIS	VIYADGMRTSYADSVK	GTNAGTFDI	-0.31 -0.16 -0.35 -0.14 0.09 -0.50	0 of 18
GFDLNEYGIS	VIYADGVRTAYADSVK	GNVAGTFDQ	-0.67 -0.76 -0.52 -0.53 -0.01 -0.88	0 of 18
GFDLDEYGIS	VIYADGKRTAYVDSVK	GNVAGTFDI	-0.87 -1.05 -0.62 -0.70 -0.27 -0.50	0 of 18
GFDLDEYGIS	VIYADGKRTAYIDSVK	GQNAGTFDV	-0.99 -1.63 -1.39 -1.00 -0.94 -1.03	0 of 18
GFDLDEYGIS	VIYADGKRTAYADSVK	GETAGTFDV	0.43 0.25 -0.17 -0.12 -0.03 0.38	0 of 18
GFDLNEYGIS	VIYADGMRTSYADSVK	GNQAGTFDM	nd 0.59 1.92 0.71 nd 0.49	0 of 18
GFDLNEYGIS	VIYADGIRTAYADSVK	GNEAGTFDV	nd nd nd nd nd 1.88	0 of 18
GFDLDEYGIS	VIYADGMRTAYANSVK	GENAGTFDV	0.71 0.35 nd 0.04 1.07 0.60	0 of 18
GFDLNEYGIS	VIYADGQRTAYTDSVK	GNNAGTFDV	-0.44 -0.61 -0.60 -0.36 -0.24 -0.20	0 of 18
GFDLNEYGIS	VIYADGQRTAYADSVK	GKVAGTFDV	-0.43 -0.70 -0.59 -0.85 -0.67 -0.46	0 of 18
GFDLNEYGIS	VIYADGVRTAYVDSVK	GNVAGTFDM	-0.03 -0.29 0.10 -0.61 -0.49 0.33	0 of 18
GFDLNEYGIS	VIYADGVRTAYADSVK	GGTAGTFDV	-0.70 -0.91 -0.66 -0.81 -0.83 -0.54	0 of 18
GFDLNEYGIS	VIYADGSRTAYADSVK	GSNAGTFDM	-0.17 -0.26 0.08 0.23 0.07 0.29	0 of 18
GFDLNEYGIS	VIYADGMRTSYADSVK	GNQAGTFDV	-0.23 -0.34 -0.44 -0.50 -0.51 -0.47	1 of 18 (3.27)
GFDLNEYGIS	VIYADGLRTAYADDVK	GENAGTFDM	-0.09 -0.06 -0.15 0.09 -0.35 -0.17	0 of 18
GFDLNEYGIS	VIYADGLRTAYSDSVK	GNVAGTFDV	-0.84 -0.81 -0.68 -0.99 -0.92 -0.62	0 of 18
GFDLEEYGIS	VIYADGRRTAYADSVK	GNNAGTFDV	0.13 -0.21 0.06 -0.23 -0.53 0.18	0 of 18
GFDLDEYGIS	VIYADGKRTFYADSVK	GENAGTFDL	-0.80 -0.28 -0.10 0.04 -0.49 -0.53	0 of 18
GFDLNEYGIS	VIYADGKRSAYADSVK	GNVAGTFDV	-0.36 -0.39 -0.48 -0.95 -0.69 -0.45	1 of 18 (1.27)
GFDLNEYGIS	VIYADGMRTAYSDDVK	GNQAGTFDV	-0.44 -0.99 -0.39 -0.68 -0.77 -0.87	1 of 18 (1.14)
GFDLNEYGIS	VIYADGVRTAYTDSVK	GSNAGTFDV	-0.48 -0.43 -0.79 -0.54 -0.56 -0.25	0 of 18
GFDLNEYGIS	VIYADGRRTAYADSVK	GNVAGTFDA	0.23 0.33 -0.06 -0.34 0.13 0.37	1 of 18 (3.54)
GFDLDEYGIS	VIYADGMRTAYADDVK	GEVAGTFDQ	-0.10 -0.41 -0.34 -0.53 -0.56 -0.53	1 of 18 (1.86)
GFDLNEYGIS	VIYADGQRTAYSDSVK	GNTAGTFDI	-0.21 -0.22 -0.24 -0.50 -0.40 -0.15	0 of 18
GFDLNEYGIS	VIYADGMRTAYADNVK	GQTAGTFDL	-0.45 -0.32 -0.52 -0.56 -0.41 -0.03	0 of 18
GFDLNEYGIS	VIYADGSRTAYSDSVK	GNQAGTFDV	-0.56 1.00 -0.58 -1.28 -0.28 -0.18	0 of 18
GFDLNEYGIS	VIYADGMRTAYADSVK	GQTAGTFDL	-0.08 -0.43 -0.73 -0.35 -0.31 -0.38	0 of 18
GFDLDEYGIS	VIYADGRRTAYADDVK	GENAGTFDQ	-0.43 -0.24 -0.34 -0.10 -0.47 -0.26	0 of 18
GFDLNEYGIS	VIYADGMRTAYSDSVK	GSVAGTFDV	-0.40 -0.85 -0.90 -0.88 -0.94 -0.64	0 of 18
GFDLNEYGIS	VIYADGMRTAYQDSVK	GNVAGTFDM	0.60 -0.71 -0.10 -0.04 -0.39 -0.28	0 of 18
GFDLNEYGIS	VIYADGMRTFYSDSVK	GNVAGTFDV	-0.72 0.90 -0.49 -0.19 -0.26 0.01	0 of 18

Reference: Li et al. 2023, doi:10.1038/s41467-023-39022-2. File: FLAb, binding data.